US20260265699A1, “STANDARDISING PLURIPOTENT STEM CELLS” (United Kingdom Research and Innovation, priority 2023, published 2026)

System: PSC lines that did not readily differentiate into neural tissue
Test: Cerebral organoid differentiation, unguided protocol (STEMdiff Cerebral Organoid Kit), panel of bad differentiator lines
Assay type: cell-based, human
Conditions: added to generate EBs; due to cell death
Description: The so called “unguided protocol” relies on the natural propensity of PSCs to differentiate to neural fate and specifically forebrain when not exposed to any growth factors. The inventors cultured PSCs in Stemflex (Thermo) medium on plates coated with Matrigel growth factor reduced (Corning) and for generation of brain organoids they used STEMdiff Cerebral Organoid Kit (Stemcell Technologies). […] To address this variability that plagues not only the neural organoid field but also others that rely on 2D and 3D differentiation to a variety of cell types, the inventors investigated the potential sources of this variability in PSCs and potential treatments to address this problem or, in other words, to standardise the performance of PSCs during differentiation.
Because neural differentiation represents the default program upon pluripotency exit, the ability of a cell line to undergo such unguided differentiation is also a good indication of their pluripotent state. The other approach was to in depth characterise PSC lines that either produce good or bad organoids by proteomics and phosphoproteomics, analysis of already available bulk RNAseq data to learn about their transcriptome, and by ATACseq to learn about open chromatin patterns. […] Based on the combination of information gathered from both approaches, a number of treatments were chosen to test on the bad differentiators.

Substance: alpha-ketoglutarate
- Effect: embryoid body formation: Embryoid bodies don't form
